scFv variants of Ab-14 (heavy chain) against a SARS-CoV-2 spike peptide

Source: Li et al. 2023 (doi:10.1038/s41467-023-39022-2), MIT Lincoln Laboratory and A-Alpha Bio; data file from the FLAb repository.

All variants were tested on one target, the spike HR2 peptide PDVDLGDISGINAS (SARS-CoV-2).

Parent scFv Ab-14: VH joined to VL by three GGGGS repeats. Changes lie in the heavy chain CDRs alone.
VH: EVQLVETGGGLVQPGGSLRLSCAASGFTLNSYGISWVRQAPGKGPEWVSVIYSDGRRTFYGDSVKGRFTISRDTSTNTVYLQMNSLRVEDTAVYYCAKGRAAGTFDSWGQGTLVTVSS
VL: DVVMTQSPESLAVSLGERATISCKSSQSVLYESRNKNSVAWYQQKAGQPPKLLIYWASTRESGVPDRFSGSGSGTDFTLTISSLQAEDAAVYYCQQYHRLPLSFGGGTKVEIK

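Phage display of a naive human antibody library on the peptide gave the parent. The variants were designed computationally from a first round of random CDR variants and then made and measured. Group labels follow the data file (Ctrl: baseline library sampled from a position-specific scoring matrix, with some repeated check sequences; Rand: our label for a block that the file lists under HC and that is probably the random mutants of the ten best first-round binders; En: ensemble of fine-tuned language models; GP: Gaussian process model; GPLM: also part of the Gaussian process libraries; HC: hill climbing; Gen: genetic algorithm; Gibbs: Gibbs sampling; a sequence that several methods proposed may carry one label only). Affinity was read by AlphaSeq, a pooled yeast mating assay with surface-displayed partners. Binding brings cells together so that they mate, and sequencing counts the barcode pairs among the diploids. A regression on co-assayed BCL2-family reference pairs converts the normalised counts of each replicate to an apparent Kd. The assay was run in six technical replicates.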

Each variant is given by its three heavy chain CDRs, as the data file delimits them; those of the parent are GFTLNSYGIS, VIYSDGRRTFYGDSVK, GRAAGTFDS. This list holds designs with at most six substitutions. The read-out is the apparent dissociation constant on a log10 scale (nM): the lower, the stronger. The mean shown is taken over the replicates in which the pair was detected. "nd" means that the variant was in the library but no mating with the target was seen in any replicate; the authors take this as a sign of poor binding, and no number exists. Order: sorted from the lowest average up, undetected variants last.

With GFDLNEYGIS / VIYADGRRTFYADSVK / GQNAGTFDS [En_HC] the result was -1.46 (6 of 6 replicates).
With GFELNDYGIS / VIYSDGRRTHYIDSVK / GRAAGTFDS [GP_HC] the result was -0.68 (6 of 6 replicates).
With GFSLNDYGIS / VIYSDGRRTFYGDSVK / GTAAGTFDS [GPLM_Gibbs] the result was -0.53 (6 of 6 replicates).
With GFSLNEYGIS / VIYADGRRTFYGDSVK / GYAAGTFDS [GP_HC] the result was -0.24 (6 of 6 replicates).
With GFELNEYGIS / VIYSDGRRTFYSDSVK / GQPAGTFDS [GP_HC] the result was -0.06 (6 of 6 replicates).
With GFSLNDYGIS / VIYSDGRRTFYGDSVK / GRTAGTFDV [GPLM_Gen] the result was -0.05 (6 of 6 replicates).
With GLTLNSYGIS / VIYADGRRTFYGDSVK / GRVAGTFDS [Ctrl] the result was 0.01 (6 of 6 replicates).
With GFYLNSYGIS / VIYSDGRRTFYGDSVK / GKTAGTFDT [GP_Gibbs] the result was 0.10 (6 of 6 replicates).
With GFDLNSYGIS / VIYSDGRRTFYQDDVK / GRTAGTFDS [GP_Gen] the result was 0.16 (6 of 6 replicates).
With GFDLNSYGIS / VIYSDGRRTFYADDVK / GRQAGTFDS [GP_Gen] the result was 0.22 (6 of 6 replicates).
With GFTLNSYGIS / VIYSDGRRTFYGDSVK / HRAAWTFCS [Ctrl] the result was 0.29 (2 of 6 replicates).
With GFELNSYGIS / VIYSDGRRTFYIDSVK / GQAAGTFDT [GPLM_Gibbs] the result was 0.39 (5 of 6 replicates).
With GFTLNSYGIS / VIYSDGRRTFYSDDVK / GRATGTFDG [Ctrl] the result was 0.47 (3 of 6 replicates).
With GFELNSYGIS / VIYSDGRRTFYDDSVK / GKQAGTFDS [GP_Gen] the result was 0.55 (6 of 6 replicates).
With GFELNNYGIS / VIYSDGRRTFYGDSVK / GQAAGTFDT [GP_Gen] the result was 0.67 (6 of 6 replicates).
With GFTLNSYGIS / VIYSDGRRSFYSDSVK / GRTAGTFDS [GP_HC] the result was 0.67 (4 of 6 replicates).
With GFTLESYGIS / VIYSDGRRTFYVDSVK / GQGAGTFDS [GP_HC] the result was 0.69 (5 of 6 replicates).
With GFELNSYGIS / VIYSDGRRTFYGDSVK / GEAAGTFDV [GP_Gen] the result was 0.72 (2 of 6 replicates).
With GFTLNSYGIS / VIYSDGVRTFYGDSVK / GRLAGTFDS [Ctrl] the result was 0.73 (6 of 6 replicates).
With GFTLNSYGIS / VIYADGRRTFYGDSVK / GKAAGTFDK [GPLM_Gen] the result was 0.78 (5 of 6 replicates).
With GFTLNDYGIS / VIYSDGRRTFYGDSVK / GRAAGTFDV [GPLM_HC] the result was 0.94 (6 of 6 replicates).
With GFELNSYGIS / VIYSDGRRTFYADSVK / GKAAGTFDK [GPLM_Gibbs] the result was 0.96 (6 of 6 replicates).
With GFDLNSYGIS / VIYSDGERTFYGDSVK / GRAAGTFDQ [Ctrl] the result was 1.10 (6 of 6 replicates).
With GFTLNEYGIS / VIYSDGRRTFYGDSVK / GRFAGTFDD [GP_HC] the result was 1.40 (6 of 6 replicates).
With KFDLNSYGIS / VIYSDGKRTFYGDSVK / GRQAGTFDS [GP_Gen] the result was 1.41 (2 of 6 replicates).
With GFTLNSHGIS / VIYSDGRRTFYGDSVK / GTAAGTFDS [Ctrl] the result was 1.46 (3 of 6 replicates).
With GFTLNSYGIS / VIYSDGRRTFYGDSVK / GAAQGTFDS [Ctrl] the result was 1.61 (1 of 6 replicates).
With GFTLNEYGIS / VIYSDGRRTFYTDDVK / GEFAGTFKS [Rand] the result was 1.74 (2 of 6 replicates).
With GFTLEKYGIS / VIYADGRRTFYGDSVK / GRAAGTFIS [GP_HC] the result was 1.87 (1 of 6 replicates).
With GFELNSYGIS / VIYADGRRTFMGDSVK / GRAAGTNTS [Rand] the result was 1.98 (2 of 6 replicates).
With MFNLNSYGIS / VIYSDGRRTFYGDSVK / GQTAGTFDS [GP_Gen] the result was 2.27 (2 of 6 replicates).
With GFTLNSYGIS / VIYSDGRRLAYGDSVK / GRAAGTFDS [Ctrl] the result was 2.86 (1 of 6 replicates).
With GFQINSYGRS / VIYSDGRRTFYGDSVK / GREKGTFDS [Ctrl] the result was nd (0 of 6 replicates).
With GFTLDSYGIS / VIYSHGRRTFYGDSVK / GRAAGTALS [Rand] the result was nd (0 of 6 replicates).
With GFTLNDYGIS / VIYSDGRRTAYGDRVK / GRAAGRFDE [Ctrl] the result was nd (0 of 6 replicates).
With GFPLNDYGIS / VIYSDGRRTWYGDSVK / GRAAGTFDS [GP_HC] the result was nd (0 of 6 replicates).
With GFTLNSYGIS / VIYSDGRRTFYHDSVK / GRASGTFDS [Ctrl] the result was nd (0 of 6 replicates).
With GFTLNSYGIS / VIYSDGRRTFYGDSTK / GRAAGTFKS [Ctrl] the result was nd (0 of 6 replicates).
With GFTLNEYGIS / VIYSDGRRTFYTDSVK / GRFAGVFDS [Rand] the result was nd (0 of 6 replicates).
With GFTLNSYGIS / VIYSDGRRTFYSDSVK / GRAAVTFDN [GPLM_HC] the result was nd (0 of 6 replicates).
With GFTLNDYGIS / VIYSDGRRTFYSDSVK / GRAVGTFDS [GP_HC] the result was nd (0 of 6 replicates).
With GFDLNSYGIS / VIYSDGRRTFYGDSVK / GRAAWTFNQ [GP_HC] the result was nd (0 of 6 replicates).
With GFHLNSYGIS / VIYSDGRRTFYGDSVK / GRAAFTFDW [Ctrl] the result was nd (0 of 6 replicates).
With GFTLNSYGIS / VIYSDGKRTFYADSVK / GNAAGTFDS [GPLM_Gibbs] the result was nd (0 of 6 replicates).
With GFTLNSYGIS / VIYSDGRRTSYGDSVK / GREAGRFDS [Ctrl] the result was nd (0 of 6 replicates).
With GFTLNNYGIS / VIYADGRRTFYGDSVK / GRAALTFDS [Ctrl] the result was nd (0 of 6 replicates).
With GFTLNEYGIS / VIYSDGRRTFYHDSVK / GRAAGKFDS [GP_HC] the result was nd (0 of 6 replicates).
With GFTLLSYGIS / VIYSDGRRTFYGDSVK / GRAAGAFDD [Ctrl] the result was nd (0 of 6 replicates).
With GFDLNSYGIS / VIYSDGRRTMYGDSVK / GRAAGWFNS [Rand] the result was nd (0 of 6 replicates).
With GFTLNDYGIS / VSYSDGRRTFYPDSVK / SRAALTFIS [Rand] the result was nd (0 of 6 replicates).
With GKSLNEYGIS / VIYSDGRRTFYGDSVK / GRAAVTFDQ [GP_HC] the result was nd (0 of 6 replicates).

The parent sequence was in this pool as ten entries: three were never detected, three once, and four in most replicates, with averages from 0.34 to 2.37. The authors averaged sequences with at least three values out of six and counted those with two or fewer as poor binders. A sequence measured in both rounds can read differently, since the two assays cover different ranges. As a blank, each scFv also met three strains without target: over all heavy chain designs, 1% of these pairings were detected, typically at 2.08 and seldom below 0.84.